{"sequences": {"note": "Amino acid sequences for entries named in this document (tags omitted).", "UniProt P10980, whole entry": "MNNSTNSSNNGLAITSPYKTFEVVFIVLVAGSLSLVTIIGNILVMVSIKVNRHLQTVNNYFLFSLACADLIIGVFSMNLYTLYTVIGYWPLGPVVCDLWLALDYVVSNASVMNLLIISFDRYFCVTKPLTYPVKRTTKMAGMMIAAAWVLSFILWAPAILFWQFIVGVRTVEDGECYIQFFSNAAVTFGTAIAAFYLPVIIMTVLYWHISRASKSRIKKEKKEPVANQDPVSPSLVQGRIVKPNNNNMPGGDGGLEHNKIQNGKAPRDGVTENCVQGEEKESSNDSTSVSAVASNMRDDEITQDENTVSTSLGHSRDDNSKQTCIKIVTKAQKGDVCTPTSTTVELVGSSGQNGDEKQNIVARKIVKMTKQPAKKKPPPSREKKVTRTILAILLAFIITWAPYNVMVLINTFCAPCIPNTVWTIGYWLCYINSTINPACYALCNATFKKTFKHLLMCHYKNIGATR"}, "source": "BindingDB's records for doi:10.1016/S0893-133X(97)00112-7", "about": "(H. Lundbeck, 1998)", "target": "Muscarinic acetylcholine receptor M2 (Rattus norvegicus, UniProt P10980)"}
{"smiles": "Cc1cc2c(s1)=Nc1ccccc1NC=2N1CCN(C)CC1", "note": "[CAS_132539-06-1]", "values": [{"measurement": "Ki", "value": 2.1, "unit": "nM"}]}
